The values that follow are results of earlier work, collected in publication PMC8341946, “Wheat pathogen Zymoseptoria tritici N-myristoyltransferase inhibitors: on-target antifungal activity and an unusual metabolic defense mechanism” (RSC Chemical Biology, 2020).

As a reminder, the Ki is a dissociation constant, usually derived from enzyme kinetics or from competition with a known ligand.

This series addresses HsNMT1. Particulars: read-out: HsNMT1 IC50 (µM), value marked (Ki); Table S1, cells marked (Ki); ref SI refs 3, 5, 6 as given with each inhibitor name; cited from earlier work.

On to `c1cnc(OC2CCNCC2)c(-c2nc(Cc3cccc4ncccc34)no2)c1`, for which the Ki was 0.024 µM.
